Assay: activity coefficient (dimensionless); of the first substance listed, at infinite dilution; xn = mol fraction of the nth substance listed
Conditions: 101 kPa, Liquid, Chromatography, x1 = 0

CCCCOCCCC [dibutyl ether] + COCC[N+]1(C)CCCC1.O=S(=O)([N-]S(=O)(=O)C(F)(F)F)C(F)(F)F
Conditions	activity coefficient
318.15 K	15.8
328.15 K	15
338.15 K	14.2
348.15 K	13.4
358.15 K	12.8
368.15 K	12.2

— the NIST ThermoML archive (doi:10.1016/j.jct.2012.03.015)
